The text below walks through data of patent US20240239769A1, “CO-CRYSTAL OF MELANOCORTIN RECEPTOR AGONIST COMPOUND AND VANILLIN AND METHOD FOR PREPARING SAME” (LG CHEM, LTD., priority 2021, published 2024).

How the values of the data set were obtained: Solubility indicates the result of measurement based on the final volume of water added to a sample when it is visually confirmed that the sample is completely dissolved by adding water to the sample. The solubility of the actual sample may be higher than the measured solubility. Solubility was measured based on the final volume of water added to a sample when it was visually confirmed that the sample was completely dissolved by adding water to the sample.

With “Co-Crystal of N-((3S,5S)-1-((3S,4R)-1-(tert-butyl)-4-(4-chlorophenyl)pyrrolidine-3-carbonyl)-5-(morpholine-4-carbonyl)pyrrolidin-3-yl)-N-((1s,4R)-4-methylcyclohexyl)isobutyramide and Vanillin [Example 2]”, the solubility result is reported as “less than 1 mg/mL”.
